Results on one compound are retold here after patent US4376119A, “Benzothiazine derivative” (priority 1981, dated 1983).

The structures appear in SMILES notation.

A short description of one data set: in vivo. Conditions: mouse, po.
The nature of data set [1]: Incidence of gastric disorders (erosion) in rats. Conditions: rat, in vivo, po.

`CN1C(C(=O)Nc2cccc(F)n2)C(=O)c2ccccc2S1(=O)=O` (centres unmarked) [N-(6-fluoro-2-pyridyl)-3,4-dihydro-2-methyl-4-oxo-2H-1,2-benzothiazine-3-carboxamide 1,1-dioxide]: the selectivity ratio in the data set “in vivo” is over 667; in data set [1], 39.6.
